We go through 1 substance from US20180009871A1 (INTARCIA THERAPEUTICS, published 2018).

Holding throughout (assay): cell-based or functional assay
One experiment concerns the target hGIPR (human) (UniProt P48546).
The target in experiment [1] is human glucagon receptor (GCGR) (human) (UniProt P47871).
Experiment [2] deals with human GLP-1 receptor (GLP-1R) (human) (UniProt P43220).

For the substance Exenatide (peptide), the Human in vitro Potency (pEC50), hGIPR with hGIPR (human) is < 5 pEC50. Further, in experiment [1], the Human in vitro Potency (pEC50), hGCGR was found to be 9.2 pEC50. Besides, the Human in vitro Potency (pEC50), hGLP-1R in experiment [2] was 11.7 pEC50.
